Values quoted from earlier work, collected in PMC9564337, “Development of a Neurotensin-Derived ^68Ga-Labeled PET Ligand with High In Vivo Stability for Imaging of NTS1 Receptor-Expressing Tumors” (Cancers, 2022).

Conditions: human plasma, 37 °C, ref Schindler et al. [40], cited from earlier work

For `CC(C)C[C@H](NC(=O)[C@@H](NC(=O)[C@H](Cc1ccc(O)cc1)NC(=O)[C@@H]1CCCN1C(=O)[C@H](CCCNC(=N)N)NC(=O)[C@@H](N)CCCNC(=N)N)C(C)(C)C)C(=O)O`, the “% Intact Peptide in Plasma after 10 min” value (10 min) is listed as 11 ^d %, the “% Intact Peptide in Plasma after 1 h” value (1 h) is listed as <1 ^d % and the “% Intact Peptide in Plasma after 24 h” value (24 h) is listed as <1 ^d %. The “% Intact Peptide in Plasma after 48 h” value (48 h) was <1 ^d %.

Marks after values point to notes of the source that are not given here.
